The values that follow come from ChEMBL document CHEMBL5029148, “Discovery of Arylsulfonamides as Dual Orexin Receptor Agonists” (J Med Chem, 2021).

Sequences of proteins named here, by UniProt entry; tags and fusion partners are left off.
UniProt O43613, whole entry: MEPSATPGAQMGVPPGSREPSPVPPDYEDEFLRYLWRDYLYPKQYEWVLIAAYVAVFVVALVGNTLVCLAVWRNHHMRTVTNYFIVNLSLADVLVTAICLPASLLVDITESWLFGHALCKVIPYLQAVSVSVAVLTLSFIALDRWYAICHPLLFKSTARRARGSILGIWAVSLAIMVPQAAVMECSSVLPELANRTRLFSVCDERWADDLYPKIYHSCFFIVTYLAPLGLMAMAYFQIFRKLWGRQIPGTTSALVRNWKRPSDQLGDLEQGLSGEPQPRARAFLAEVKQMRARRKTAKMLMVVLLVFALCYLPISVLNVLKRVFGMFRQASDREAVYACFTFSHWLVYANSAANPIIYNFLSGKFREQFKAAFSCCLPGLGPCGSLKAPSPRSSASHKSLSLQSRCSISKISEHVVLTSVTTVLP

As usually defined, the pEC50 is −log10 of the EC50, conventionally taken in molar units.

The structures appear in SMILES notation. pEC50: −log10 of the molar value.

This assay addresses Orexin/Hypocretin receptor type 1 (Homo sapiens, UniProt O43613). Briefly: Agonist activity at human OX1R stably expressed in CHO RD-HGA16 cells assessed as fluorescence changes measured after 30 mins by calcium mobilization assay. The assay is classed as functional, cell-based. In general terms: A change in cytosolic calcium serves as a functional read-out for many receptors and channels.
Turning to `COc1ccc(CCC(=O)N(C)C)cc1S(=O)(=O)Nc1cccc(NCCNC(=O)c2cccc(C)c2)c1`, the negative-log EC50 (pEC50) is less than 5.00.
With `COc1ccc(-c2cccc(C(=O)N(C)C)c2)cc1S(=O)(=O)Nc1cccc(NCCNC(=O)c2cccc(C)c2)c1` the figure was 6.49; with `COc1ccc(/C=C/C(=O)N(C)C)cc1S(=O)(=O)Nc1cccc(NCCNC(=O)c2cccc(C)c2)c1`, less than 5.00.
